PMC1262692

Target: Speedy/Ringo A2-His6 (mouse) (UniProt Q5IBH7)
Experiment: SEC; Cdk2 and Speedy/Ringo A2-His6 coexpressed in E. coli, purified together on a metal affinity column, loaded on Superdex-200 in 1 x TBS (50 mM Tris-HCl pH 7.4, 150 mM NaCl, 0.5 mM EDTA, 0.5 mM DTT), 0.5 ml/min; fractions read by Coomassie stain and anti-Cdk2 blot

Substance: Cdk2 coexpressed with Speedy/Ringo A2-His6 (unphosphorylated on Thr-160) (from UniProt P24941 1-298) (enzyme)
- stoichiometry N (Cdk2 per Speedy/Ringo A2-his6): 1
